Measured values: patent US20040058855A1, “Use of materials having zinc ionophoric behavior” (priority 2002, published 2004)

Experiment: Zinc availability test with metallochromic dye zincon (colour change orange to blue)
Format: physicochemical
Settings: ~30 mg/10 ml water, pH 7-11, zincon in ethanol
From the text: Zinc-containing materials (ZCMs) differ with respect to how strongly the zinc ion (Zn^2+) is held by counterions in the crystal lattice. The benefits discussed herein depend upon having available Zn^2+. […] The response is a binary visual assessment of whether or not the color changes indicating zinc-binding.
The method is based on the commercial metallochromic dye zincon. Zincon changes from an orange color to blue upon binding zinc and provides the basis for detecting available Zn^2+: [drawing 20]
The specific procedure involves making a stock solution of zincon in ethanol (˜50 mg/10 ml ethanol). The ZCM is then added to water (˜30 mg/10 ml water) and agitated (pH range should be 7-11). Three to four drops of zincon solution are then added to the ZCM in water, agitated and a visual assessment of color change made.

zinc salicylate
available Zn^2+ (zincon colour change, binary visual assessment): have available zinc
